IC50 data for 2 molecules are collected here from US9266883B2, “Ring-fused bicyclic pyridyl derivatives as FGFR4 inhibitors” (Novartis AG, priority 2013, dated 2016).

The chains behind the UniProt entries cited, without tags or fusion partners. A line that says so, or that is headed by a name, gives the form on record, which may keep a tag or linker.
UniProt P22455, other isoform, or with tags, fused parts or gaps: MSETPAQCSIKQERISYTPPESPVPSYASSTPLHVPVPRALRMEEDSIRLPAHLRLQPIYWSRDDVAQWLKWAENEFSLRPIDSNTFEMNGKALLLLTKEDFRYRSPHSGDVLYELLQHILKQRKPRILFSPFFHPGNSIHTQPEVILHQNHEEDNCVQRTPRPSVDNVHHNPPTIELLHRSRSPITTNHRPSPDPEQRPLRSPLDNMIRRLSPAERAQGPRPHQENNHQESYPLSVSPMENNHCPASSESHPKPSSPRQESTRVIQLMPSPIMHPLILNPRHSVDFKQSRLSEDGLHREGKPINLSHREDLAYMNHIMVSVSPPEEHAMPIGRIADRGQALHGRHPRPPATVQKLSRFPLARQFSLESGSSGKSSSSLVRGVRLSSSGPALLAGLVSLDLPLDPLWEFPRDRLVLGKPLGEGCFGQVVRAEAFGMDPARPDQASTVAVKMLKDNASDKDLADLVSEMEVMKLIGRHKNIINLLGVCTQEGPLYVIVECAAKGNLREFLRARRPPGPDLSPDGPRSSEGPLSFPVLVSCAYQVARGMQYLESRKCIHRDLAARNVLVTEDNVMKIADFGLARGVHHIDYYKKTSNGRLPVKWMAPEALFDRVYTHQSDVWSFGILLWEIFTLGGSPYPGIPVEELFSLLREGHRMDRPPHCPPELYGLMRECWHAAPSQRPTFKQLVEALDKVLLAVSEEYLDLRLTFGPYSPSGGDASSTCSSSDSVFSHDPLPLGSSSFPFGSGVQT

This assay deals with Tel-FGFR4 (Homo sapiens (Human), UniProt P22455). The experiment in a line: In vitro cellular kinase assay for FGFR4 (BaF3-Tel-FGFR4 cells, MSD capture ELISA of tyrosine phosphorylation). Conditions: 1 hour incubation. The assay is classed as cell-based. In general terms: An ELISA detects its analyte on a solid surface through an enzyme-linked reagent.

Usually IC50 stands for the concentration that inhibits the measured activity by half. `O=Cc1ccc2c(n1)N(C(=O)Nc1ncc(Cl)c(OC3CCOC3)n1)CCC2` (racemic) [Example 32, N-(5-chloro-4-((tetrahydrofuran-3-yl)oxy)pyrimidin-2-yl)-7-formyl-3,4-dihydro-1,8-naphthyridine-1(2H)-carboxamide] had a 50% inhibitory concentration (IC50) of 79 nM.
`COCCNc1cc(NC(=O)N2CCCc3cc(N4CCC(C)C4=O)c(C=O)nc32)ncc1C#N` (racemic) [Example 261, N-(5-cyano-4-((2-methoxyethyl)amino)pyridin-2-yl)-7-formyl-6-(3-methyl-2-oxopyrrolidin-1-yl)-3,4-dihydro-1,8-naphthyridine-1(2H)-carboxamide] had an IC50 of 35.5 nM.
